# Measured values published in publication PMC6261607, “Novel high–throughput myofibroblast assays identify agonists with therapeutic potential in pulmonary fibrosis that act via EP2 and EP4 receptors” (PLoS ONE, 2018).
# Protein sequences, listed by entry. Tags and fused reporters are not part of them. Lines headed by an entry give the natural chain unless they say otherwise; changes in a name come on top.
# UniProt P43116: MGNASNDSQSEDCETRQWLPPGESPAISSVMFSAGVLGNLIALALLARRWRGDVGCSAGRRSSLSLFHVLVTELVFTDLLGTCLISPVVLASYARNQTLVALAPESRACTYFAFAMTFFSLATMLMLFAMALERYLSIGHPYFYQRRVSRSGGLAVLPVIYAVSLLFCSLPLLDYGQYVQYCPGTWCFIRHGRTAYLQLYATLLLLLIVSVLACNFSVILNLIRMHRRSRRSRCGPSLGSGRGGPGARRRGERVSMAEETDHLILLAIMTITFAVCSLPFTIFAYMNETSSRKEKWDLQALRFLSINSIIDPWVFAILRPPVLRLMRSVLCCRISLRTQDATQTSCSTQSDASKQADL
# Experiments:
# NHLF cells = assay: RealTime–Glo MT viability assay; conditions: 10 µM compound
# [1] = molecular target: T1, EP2 receptor (human PTGER2) (Homo sapiens, UniProt P43116); assay: β–arrestin recruitment assay (PathHunter); format: cell-based; conditions: HEK–293 PathHunter, 120 min
# T1 construct: host or cells: HEK-293 PathHunter
# Procedure: EP2 and EP4 receptor β–arrestin (HEK–293 human PTGER2 and PTGER4 PathHunter) assays were purchased from DiscoverX. Recombinant HEK–293 PathHunter cells were detached and seeded in 384–well plates and grown overnight in OptiMEM medium (Invitrogen). Compounds were incubated for 120 min at 37°C. Chemiluminescent PathHunter detection reagent was added according to the manufacturer’s instructions followed by luminescence quantification on a microplate reader (PHERAstar, BMG Labtech). EC50 values were calculated using the proprietary IC50Studio software (Idorsia Pharmaceuticals Ltd).
# human EP2 receptor = molecular target: T2, human EP2 receptor (Homo sapiens, UniProt P43116); assay: cAMP assay, recombinant HEK–293 cells; format: cell-based; conditions: HEK–293 expressing human EP2, 30 min
# T2 construct: expressed in transfected cells; host or cells: HEK-293
Structure (SMILES),Effect on viability at 10 µM [% reduction] (NHLF cells),EC50 [1] [nM],EC50 (human EP2 receptor) [nM]
Oc1c(Cl)cc(Cl)c(Cl)c1Cc1c(O)c(Cl)cc(Cl)c1Cl [Hexachlorophene],8,,
"CCCCC[C@H](O)/C=C/[C@H]1[C@H](O)CC(=O)[C@@H]1C/C=C\CCCC(=O)O [PGE2, prostaglandin E2]",,110,0.04
